US9611277B2 (Janssen Pharmaceutica NV, priority 2013, dated 2017)

By UniProt entry, the sequences of proteins in these tests, tags left out.
UniProt O43614, whole entry: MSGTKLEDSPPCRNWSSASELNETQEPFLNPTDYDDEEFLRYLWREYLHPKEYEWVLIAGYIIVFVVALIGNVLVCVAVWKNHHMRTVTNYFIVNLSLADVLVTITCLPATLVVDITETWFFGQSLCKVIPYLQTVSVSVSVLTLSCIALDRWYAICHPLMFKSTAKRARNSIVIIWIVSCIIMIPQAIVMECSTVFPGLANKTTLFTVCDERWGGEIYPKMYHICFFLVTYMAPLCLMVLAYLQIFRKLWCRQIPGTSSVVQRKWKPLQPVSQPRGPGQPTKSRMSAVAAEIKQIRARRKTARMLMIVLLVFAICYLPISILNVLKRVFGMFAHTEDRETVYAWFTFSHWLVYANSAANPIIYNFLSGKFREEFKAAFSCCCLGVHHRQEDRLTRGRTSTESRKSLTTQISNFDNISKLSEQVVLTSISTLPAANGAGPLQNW

What was measured:
rat orexin 1 receptor = rat orexin 1 receptor (Rattus norvegicus, UniProt P56718); test: Rat orexin 1 receptor radioligand binding; details: read-out: rOX1 Ki
Procedure: (§1) Data are analyzed using pc-Sandy macro and graphed on Graphpad Prism 5. For analysis, each concentration point is averaged from triplicate values and the averaged values are plotted on Graphpad Prism. The IC50 was determined by applying the following equation (GraphPad Prism 5.0, SanDiego) for one site competition where X=log (concentration) and Y=specific binding. Top denotes the total [^3H]-(1-(5-(2-fluoro-phenyl)-2-methyl-thiazol-4-yl)-1-((S)-2-(5-phenyl-(1,3,4)oxadiazol-2-ylmethyl)-pyrrolidin-1-yl)-methanone) binding, bottom denotes the nonspecific [^3H]-(1-(5-(2-fluoro-phenyl)-2-methyl-thiazol-4-yl)-1-((S)-2-(5-phenyl-(1,3,4)oxadiazol-2-ylmethyl)-pyrrolidin-1-yl)-methanone) binding. Graphpad Prism calculates Ki value from IC50 and the pre-determined Kd values for [^3H]-(1-(5-(2-fluoro-phenyl)-2-methyl-thiazol-4-yl)-1-((S)-2-(5-phenyl-(1,3,4)oxadiazol-2-ylmethyl)-pyrrolidin-1-yl)-methanone) and [3H]-EMPA. The Ki for each compound is then uploaded into 3DX. Each run comprises individual compounds in triplicate. The data in Table 1 and Table 2 represent averages from between 2-20 runs
(§2) Rat and Human Orexin 1 Receptor Radioligand Binding Studies
(§3) After centrifugation (2K×G, 5 min at 4° C.), the supernatant was aspirated and the pellets frozen and stored at −80° C. […] Each cell pellet from a 15 cm plate was resuspended in 10 mL, stored on ice, and homogenized for 45 sec prior to addition to the reactions. […] The final concentration of DMSO in the reactions is equal to or less than 0.1%. Total and nonspecific binding was determined in the absence and presence of 10 μM almorexant. The total volume of each reaction is 200 μL (20 μL of diluted compounds, 80 μL of [^3H]-(1-(5-(2-fluoro-phenyl)-2-methyl-thiazol-4-yl)-1-((S)-2-(5-phenyl-(1,3,4)oxadiazol-2-ylmethyl)-pyrrolidin-1-yl)-methanone) diluted in PBS and 100 μL of the cell suspension). […] The plates were washed 3 times by aspirating 30 ml PBS through the plates. Plates were dried in 55° C. oven for 60 min, scintillation fluid was added, and the radioactivity was counted on a Topcount (Packard).

human orexin 2 receptor = human orexin 2 receptor (Homo sapiens (Human), UniProt O43614); test: Human orexin 2 receptor radioligand binding; details: read-out: hOX2 Ki
Procedure: as §1
Human Orexin 2 Receptor Radioligand Binding Studies
as §3, with “HEK293 stably expressing human orexin 2 receptor (Genebank accession number NM_001526) were grown to confluency in DMEM (Hyclone, cat # SH30022), 10% FBS, 1× Pen/Strep, 1× NaPyruvate, 10 mM HEPES, 600 ug/ml G418 media on 150 cm^2 tissue culture plates, washed with 5 mM EDTA in PBS (HyClone Dulbecco's Phosphate Buffered Saline 1× with Calcium and Magnesium, Cat # SH30264.01, hereafter referred to simply as PBS) and scraped into 50 ml tubes. After” for “After”, “sec just” for “sec”, “[^3H]-EMPA” for “[^3H]-(1-(5-(2-fluoro-phenyl)-2-methyl-thiazol-4-yl)-1-((S)-2-(5-phenyl-(1,3,4)oxadiazol-2-ylmethyl)-pyrrolidin-1-yl)-methanone)”

human orexin 1 receptor = human orexin 1 receptor (Homo sapiens, UniProt O43613); test: Human orexin 1 receptor radioligand binding; details: read-out: hOX1 Ki
Procedure: as §1, §2, §3

[1] = rat orexin 1 receptor, averages of 2-20 runs
[2] = human orexin 2 receptor, averages of 2-20 runs
[3] = human orexin 1 receptor, averages of 2-20 runs

Row | Ki (human orexin 2 receptor; [2]) | Structure (SMILES) | Ki (rat orexin 1 receptor; [1]) | also measured
1 |  | O=C(c1cc(F)ccc1-n1nccn1)N1CC2CC(Oc3ccc(C(F)(F)F)cn3)C1C2 (racemic) [Example 14, (R/S)-(5-fluoro-2-(2H-1,2,3-triazol-2-yl)phenyl)(6-((5-(trifluoromethyl)pyridin-2-yl)oxy)-2-azabicyclo[2.2.1]heptan-2-yl)methanone] | 17 nM | 
2 |  | Cc1ccc(-n2nccn2)c(C(=O)N2CC3CC(Oc4ccc(C(F)(F)F)cn4)C2C3)n1 [Example 25, (6-methyl-3-(2H-1,2,3-triazol-2-yl)pyridin-2-yl)((1S,4R,6R)-6-((5-(trifluoromethyl)pyridin-2-yl)oxy)-2-azabicyclo[2.2.1]heptan-2-yl)methanone] | 14 nM | 
3 |  | O=C(c1cccc(F)c1-c1ncccn1)N1C[C@@H]2CC[C@H]1[C@H](Oc1ccc(C(F)(F)F)cn1)C2 [Example 73, (3-fluoro-2-(pyrimidin-2-yl)phenyl)((1S,4R,6R)-6-((5-(trifluoromethyl)pyridin-2-yl)oxy)-2-azabicyclo[2.2.2]octan-2-yl)methanone] |  | Ki (rat orexin 1 receptor): 8 nM; Ki (human orexin 2 receptor): 575 nM
4 |  | O=C(c1cc(F)ccc1-n1nccn1)N1C[C@H]2C[C@@H](Oc3ccc(C(F)(F)F)cn3)[C@@H]1C2 [Example 43, (5-fluoro-2-(2H-1,2,3-triazol-2-yl)phenyl)((1S,4R,6R)-6-((5-(trifluoromethyl)pyridin-2-yl)oxy)-2-azabicyclo[2.2.1]heptan-2-yl)methanone] |  | Ki (human orexin 1 receptor; [3]): 16 nM
5 |  | O=C(c1cccc(F)c1-n1nccn1)N1C[C@@H]2CC[C@H]1[C@H](Nc1cnc(C(F)(F)F)cn1)C2 [Example 274, (3-fluoro-2-(2H-1,2,3-triazol-2-yl)phenyl)((1S,4R,6R)-6-((5-(trifluoromethyl)pyrazin-2-yl)amino)-2-azabicyclo[2.2.2]octan-2-yl)methanone] |  | Ki (human orexin 1 receptor): 8 nM
6 |  | O=C(c1ccccc1-n1nccn1)N1C[C@@H]2CC[C@H]1[C@H](Nc1cnc(C(F)(F)F)cn1)C2 [Example 275, (2-(2H-1,2,3-triazol-2-yl)phenyl)((1S,4R,6R)-6-((5-(trifluoromethyl)pyrazin-2-yl)amino)-2-azabicyclo[2.2.2]octan-2-yl)methanone] |  | Ki (human orexin 1 receptor): 5 nM
7 |  | COc1cccc(-n2nccn2)c1C(=O)N1C[C@H]2C[C@@H](Oc3ccc(C(F)(F)F)cn3)[C@@H]1C2 [Example 289, (2-methoxy-6-(2H-1,2,3-triazol-2-yl)phenyl)((1S,4R,6R)-6-((5-(trifluoromethyl)pyridin-2-yl)oxy)-2-azabicyclo[2.2.1]heptan-2-yl)methanone] | 14 nM | Ki (human orexin 1 receptor; [3]): 24 nM
8 | 865 nM | O=C(c1ccc(F)cc1-c1ncccn1)N1C[C@@H]2CC[C@H]1[C@H](Oc1ccc(C(F)(F)F)cn1)C2 [Example 259, (4-fluoro-2-(pyrimidin-2-yl)phenyl)((1S,4R,6R)-6-((5-(trifluoromethyl)pyridin-2-yl)oxy)-2-azabicyclo[2.2.2]octan-2-yl)methanone] |  | 
9 | 343 nM | O=C(c1ccccc1-n1nccn1)N1C[C@H]2C[C@@H](Oc3ccc(C(F)(F)F)cn3)[C@@H]1C2 [Example 36, (2-(2H-1,2,3-triazol-2-yl)phenyl)((1S,4R,6R)-6-((5-(trifluoromethyl)pyridin-2-yl)oxy)-2-azabicyclo[2.2.1]heptan-2-yl)methanone] |  | 
10 | 550 nM | O=C(c1ccccc1-c1ncc(F)cn1)N1C[C@@H]2CC[C@H]1[C@H](Oc1ccc(C(F)(F)F)cn1)C2 [Example 262, (2-(5-fluoropyrimidin-2-yl)phenyl)((1S,4R,6R)-6-((5-(trifluoromethyl)pyridin-2-yl)oxy)-2-azabicyclo[2.2.2]octan-2-yl)methanone] |  | 

Row | Structure (SMILES) | Ki (human orexin 2 receptor; [2]) | Ki (rat orexin 1 receptor; [1]) | also measured
11 | Cc1ccc(-n2nccn2)c(C(=O)N2C[C@@H]3CC[C@H]2[C@@H](Nc2cnc(C(F)(F)F)cn2)C3)n1 (racemic) [Example 253, (R/S)-(6-methyl-3-(2H-1,2,3-triazol-2-yl)pyridin-2-yl)(6-((5-(trifluoromethyl)pyrazin-2-yl)amino)-2-azabicyclo[2.2.2]octan-2-yl)methanone] | > 10000 nM | > 10000 nM | 
12 | O=C(c1cccc(F)c1-c1ncccn1)N1C[C@H]2C[C@@H](Oc3ccc(C(F)(F)F)cn3)[C@@H]1C2 [Example 27, (3-fluoro-2-(pyrimidin-2-yl)phenyl)((1S,4R,6R)-6-((5-(trifluoromethyl)pyridin-2-yl)oxy)-2-azabicyclo[2.2.1]heptan-2-yl)methanone] | 725 nM |  | Ki (human orexin 1 receptor; [3]): 5 nM

Read-outs that look alike come from different tables or passages of the source.
